Reference: PubChem BioAssay AID1645857 (Buhrlage Lab, Dana-Farber Cancer Institute and Novartis …, 2021)
This is a selection; strong and weak results do not stand in their true shares. Active and inactive are the calls of the source. Rule as the data show it: active = inhibition above about 30%; inactive = the rest.

By UniProt entry, the sequences of proteins in these tests, tags left out.
UniProt Q96RU2, whole entry: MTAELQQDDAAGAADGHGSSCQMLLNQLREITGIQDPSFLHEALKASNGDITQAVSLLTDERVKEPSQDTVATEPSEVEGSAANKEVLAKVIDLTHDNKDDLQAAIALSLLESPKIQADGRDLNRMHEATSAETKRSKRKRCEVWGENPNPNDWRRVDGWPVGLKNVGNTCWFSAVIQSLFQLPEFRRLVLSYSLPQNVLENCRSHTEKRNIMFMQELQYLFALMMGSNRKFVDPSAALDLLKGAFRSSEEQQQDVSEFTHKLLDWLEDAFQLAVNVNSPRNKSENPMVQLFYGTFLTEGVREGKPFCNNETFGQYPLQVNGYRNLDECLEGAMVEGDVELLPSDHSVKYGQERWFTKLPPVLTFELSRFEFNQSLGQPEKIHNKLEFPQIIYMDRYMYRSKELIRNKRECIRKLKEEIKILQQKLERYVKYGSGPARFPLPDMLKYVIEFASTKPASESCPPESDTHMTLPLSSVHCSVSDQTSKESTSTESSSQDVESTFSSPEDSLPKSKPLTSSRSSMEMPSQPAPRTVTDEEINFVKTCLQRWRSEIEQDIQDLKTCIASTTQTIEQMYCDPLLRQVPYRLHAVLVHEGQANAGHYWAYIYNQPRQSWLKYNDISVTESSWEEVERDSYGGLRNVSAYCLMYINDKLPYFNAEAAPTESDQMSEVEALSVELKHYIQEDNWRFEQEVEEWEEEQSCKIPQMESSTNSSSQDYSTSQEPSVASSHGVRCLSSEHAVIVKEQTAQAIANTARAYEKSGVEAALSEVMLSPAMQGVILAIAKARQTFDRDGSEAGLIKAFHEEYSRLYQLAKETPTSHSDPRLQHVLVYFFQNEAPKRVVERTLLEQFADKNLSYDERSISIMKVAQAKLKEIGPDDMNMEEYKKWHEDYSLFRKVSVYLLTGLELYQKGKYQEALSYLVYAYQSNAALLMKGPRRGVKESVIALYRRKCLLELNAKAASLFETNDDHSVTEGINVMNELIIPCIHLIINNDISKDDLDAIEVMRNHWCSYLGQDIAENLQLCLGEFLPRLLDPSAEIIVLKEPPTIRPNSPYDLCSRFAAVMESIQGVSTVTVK

biological target: Ubiquitin carboxyl-terminal hydrolase 28 (Homo sapiens) (UniProt Q96RU2); test: inhibitors of human USP28 deubiquitinase (AID 1645857); conditions: purified USP28, Ub-rhodamine cleavage fluorescence, 30 min; at 25 µM; active compounds read high

Row | SMILES | inhibition
1 | O=C(NCC1(N2CCCCC2)CCCCC1)c1ccc(F)cc1 | inactive: -46.8%
2 | CC1CN(CCc2ccccc2)CCC1=O (stereo not drawn) | inactive: 4.8%
3 | Cc1ccccc1C(=O)NCC1(N2CCOCC2)CCCCC1 | inactive: -7.15%
4 | O=C(NCC1(N2CCCCC2)CCCCC1)c1ccc2ncsc2c1 | inactive: -9.55%
5 | Cc1cc(C(=O)NCC2(N3CCOCC3)CCCCC2)c2ccccc2n1 | inactive: 2%
6 | O=C(NCC1(N2CCOCC2)CCCCC1)c1ccccc1Cl | inactive: -15.2%
7 | N#Cc1ccc(C(=O)NCC2(N3CCCCC3)CCCCC2)cc1 | inactive: -12.1%
8 | CN(C)c1ccc(C(=O)NCC2(N3CCCCC3)CCCCC2)cc1 | inactive: -1.2%
